Reference: paper PMC5365662, “A Short Double-Stapled Peptide Inhibits Respiratory Syncytial Virus Entry and Spreading” (Antimicrobial Agents and Chemotherapy, 2017)

Tests used:
[1] = Far-UV circular dichroism, α-helical content; assay type: physicochemical; settings: CD
Procedure: The circular dichroism spectra were acquired on a Chirascan spectropolarimeter. The samples were prepared in 10 mM phosphate buffer, pH 7.5, at a peptide concentration of 50 μM. Data were recorded at 25°C by step scan from 180 nm to 260 nm in a 0.5-mm path length quartz cell using 1-nm wavelength increments and a response time of 1 s. The data were converted to per residue molar ellipticity units [θ] (degree per square centimeter per decimole per residue) and smoothed using the Igor Pro software. The percentage of helicity was calculated as described previously ([35]).

[2] = test system: recombinant GFP-expressing RSV (strain A2) in A549 cells; assay type: cell-based, human respiratory syncytial virus; settings: GFP-positive cells by FACS 24 h p.i.
Procedure: A549 cells were infected with a recombinant green fluorescent protein (GFP)-expressing RSV (strain A2) ([23]), and the inhibitory activity of the peptide was quantified by flow cytometry.
Each peptide was diluted 3 times by 2-fold serial dilutions. eGFP RSV virus at an MOI of 0.5 was used for the infection, and GFP-positive cells were counted by FACS analysis 24 h p.i. The GFP data were normalized to the fluorescence values observed with virus only and plotted as percent inhibition.
Serial 4-fold dilutions of inhibitors were mixed with eGFP-encoding RSV virus ([23]) with a volume of virus required to achieve approximately 50% of infection in medium containing 2% fetal calf serum. The resulting mixture was added to 24-well plates containing A549 cells. Cells were incubated for 2 h at 37°C, the medium was replaced, and cells were incubated for an additional 24 h. Cells were treated with 300 μl of trypsin for 10 min at 37°C, and the detached cells were diluted in 1 ml of culture medium. Following centrifugation at 1,700 rpm, the pellet was resuspended in 300 μl of PBS–1% fetal bovine serum (FBS) (vol/vol) and GFP-positive cells were counted by fluorescence-activated cell sorter (FACS) analysis. The GFP data were normalized to the fluorescence value observed with virus only. The resulting inhibition curves were fitted in Igor Pro as described above.

circular dichroism = settings: 10 mM phosphate; pH 7.5; 25 °C; 50 uM

SMILES	θ208/θ222 molar ellipticity ratio ([1]; indicator of α-helical stability)	inhibition of RSV-eGFP infection (in words) [2]	helicity (circular dichroism)	% Helicity ([1]; Table 2, 10 mM phosphate buffer pH 7.5, 50 μM peptide, 25°C)
CC[C@H](C)[C@@H]1NC(=O)[C@H](Cc2ccccc2)NC(=O)[C@@](C)(NC(=O)[C@H](CC(C)C)NC(=O)[C@H](CO)NC(=O)[C@H](CCC(N)=O)NC(=O)[C@H](CCC(=O)O)NC(C)=O)CCCC=CCCC[C@@](C)(C(=O)N[C@@H](CO)C(=O)N[C@@H](CC(=O)O)C(=O)N[C@@]2(C)CCCC=CCCC[C@@](C)(C(=O)N[C@H](C(N)=O)C(C)C)NC(=O)[C@H](Cc3c[nH]cn3)NC(=O)[C@H](CC(C)C)NC(=O)[C@H](CC(C)C)NC2=O)NC(=O)[C@H](CCCNC(=N)N)NC1=O [Peptide 3ac]	~1	capable of blocking viral infection of cells similarly to T108	47.2%	–
CC[C@H](C)[C@@H]1NC(=O)[C@H](CCCCN)NC(=O)[C@](C)(NC(C)=O)CCCCCCC=CCCC[C@@](C)(C(=O)N[C@@H](Cc2ccccc2)C(=O)N[C@H](C(=O)N[C@@H](CCCNC(=N)N)C(=O)N[C@]2(C)CCCCCCC=CCCC[C@@](C)(C(=O)N[C@H](C(N)=O)C(C)C)NC(=O)[C@H](Cc3c[nH]cn3)NC(=O)[C@H](CC(C)C)NC(=O)[C@H](CC(C)C)NC(=O)[C@H](CCC(=O)O)NC(=O)[C@H](CC(=O)O)NC(=O)[C@H](CO)NC2=O)[C@@H](C)CC)NC(=O)[C@H](CC(C)C)NC(=O)[C@H](CO)NC(=O)[C@H](CCC(N)=O)NC(=O)[C@H](CC(N)=O)NC1=O [Peptide 4ef]	–	–	50.7%	50.7%
